Reference: patent US20150038471A1, “PROCESS FOR PREVENTING OR MITIGATING BIOFOULING” (Baker Hughes Incorporated, priority 2010, published 2015)

Test system: sulfate-reducing bacteria (SRB)
Assay: SRB surviving 3 h treatment, serial dilution enumeration (NACE TMO 194-2004)
Type: cell-based
Settings: very low concentrations of cinnamaldehyde
Excerpt: Following the treatment, an aliquot of each sample was serially diluted (10-fold dilutions) into culture media for SRB to enumerate the survivors according to NACE TMO 194-2004.

With `O=CC=Cc1ccccc1` [Cinnamaldehyde, cinnamaldehyde] the “Effect of cinnamaldehyde on the ability of THPS to inhibit SRB growth” value was “improves the ability of THPS to inhibit the growth of sulfate reducing bacteria”.
